# Measured values as given in PubChem BioAssay AID651815 (National Center for Advancing Translational Sciences (NCATS), 2012).
# By UniProt entry, the sequences of proteins in these tests, tags left out. Where a name states a change or a piece, a line headed by the entry shows the natural chain unless it says otherwise.
# UniProt Q8IUX4: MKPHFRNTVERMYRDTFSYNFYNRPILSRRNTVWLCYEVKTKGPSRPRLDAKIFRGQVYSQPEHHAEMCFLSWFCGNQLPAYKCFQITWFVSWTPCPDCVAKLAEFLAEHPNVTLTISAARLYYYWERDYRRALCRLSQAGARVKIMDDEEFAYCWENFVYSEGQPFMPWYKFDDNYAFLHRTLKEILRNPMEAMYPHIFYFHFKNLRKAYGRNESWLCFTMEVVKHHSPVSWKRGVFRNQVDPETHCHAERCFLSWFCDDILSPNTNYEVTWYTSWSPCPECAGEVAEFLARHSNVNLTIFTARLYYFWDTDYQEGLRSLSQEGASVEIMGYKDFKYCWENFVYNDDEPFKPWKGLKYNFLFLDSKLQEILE
# The list shows a part of the results, in another mix than the full data. Inconclusive results are not listed. The source made the active and inactive calls. Calls come from the whole dose curve; as a rule, active = well fitted inhibition curve with a large enough effect; inconclusive = small, poorly fitted or top-dose-only effect; inactive = no such curve, though single readings can be large or run the other way.
# Molecular target: DNA dC->dU-editing enzyme APOBEC-3F (Homo sapiens) (UniProt Q8IUX4)
# Assay: qHTS for inhibitors of Vif-A3F interactions: Cherry picks counterscreen; note: nearly all actives have a fitted effect of over 65% in size
# Conditions: HeLa A3F-eYFP/Vif cells, eYFP fluorescence, 24 h
# Description: The recent discovery and characterization of host restriction factors, which provide a potent defense to invading retroviruses, has provided new targets for antiviral drug development. APOBEC3G (A3G) and APOBEC3F (A3F) are potent cytidine deaminases that block HIV-1 replication; HIV-1 expresses the Vif protein, which counteracts A3G and A3F by binding to them and inducing their proteasomal degradation. The Vif-A3G and Vif-A3F interactions provide two potential targets for development of small molecules which can interfere with the ability of Vif to degrade A3G or A3F. […] To identify inhibitors that can interfere with Vif mediated degradation of A3G and A3F, we have developed Hela cell lines that stably express A3G or A3F tagged with eYFP at the C-terminal end (A3G-eYFP or A3F-eYFP, respectively) and Vif. In the absence of an inhibitor, Vif induces degradation of A3G-eYFP and A3F-eYFP, and the cells are not fluorescent. In the presence of an inhibitor, it is expected that Vif will be unable to degrade A3G-eYFP and/or A3F-eYFP, resulting in an increase in yellow fluorescence. […]
# A3F-Vif cells were harvested from T225 flask and resuspended in phenol free OPTI-MEM medium with 5% FBS. […] After that, the plates were measured on Acumen Explorer (TTP Lab Tech). The fluorescence was detected by 488 nm/Ex and […].
# Potency is the fitted concentration of half-maximal effect.
row,SMILES,Potency
1,CC[n+]1c(/C=C/N(C)c2ccccc2)oc2ccccc21,active: 5.8 µM
